Where only a bound is given, the exact number is not on record here.

Sequences of proteins named here, by UniProt entry; tags and fusion partners are left off. A change or cut given only in a name is not applied to a line headed by its entry.
UniProt P05067: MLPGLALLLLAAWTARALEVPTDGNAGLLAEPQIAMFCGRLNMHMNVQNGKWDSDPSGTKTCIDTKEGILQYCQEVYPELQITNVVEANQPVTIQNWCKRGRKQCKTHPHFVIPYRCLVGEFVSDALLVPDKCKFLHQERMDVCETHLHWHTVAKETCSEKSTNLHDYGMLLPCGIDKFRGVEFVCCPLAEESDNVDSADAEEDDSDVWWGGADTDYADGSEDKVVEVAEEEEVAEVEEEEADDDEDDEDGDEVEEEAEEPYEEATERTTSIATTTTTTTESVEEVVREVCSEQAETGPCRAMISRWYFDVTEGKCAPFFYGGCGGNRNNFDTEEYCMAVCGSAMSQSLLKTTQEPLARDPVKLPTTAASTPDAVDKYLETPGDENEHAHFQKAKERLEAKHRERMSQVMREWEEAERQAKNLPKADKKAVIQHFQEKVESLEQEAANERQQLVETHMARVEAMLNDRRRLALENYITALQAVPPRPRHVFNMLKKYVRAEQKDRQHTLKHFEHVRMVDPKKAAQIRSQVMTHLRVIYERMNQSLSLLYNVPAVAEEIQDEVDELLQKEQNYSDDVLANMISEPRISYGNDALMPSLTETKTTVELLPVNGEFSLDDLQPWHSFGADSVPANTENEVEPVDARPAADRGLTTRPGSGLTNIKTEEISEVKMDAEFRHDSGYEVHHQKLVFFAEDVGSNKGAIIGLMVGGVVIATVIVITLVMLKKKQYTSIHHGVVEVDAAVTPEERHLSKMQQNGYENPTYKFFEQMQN

One test relates to aducanumab. Description: ELISA of aducanumab on plates coated with truncated Aβ peptides. The settings on record: for EC50: aducanumab on peptide coated or captured at 5 μg/mL (multivalent effects), antibody from 100 nM, 2 h room temperature, read-out: Binding activity (EC50); for Fold reduction (relative to Aβ1-42): reduction of aducanumab binding affinity, peptide 5 μg/mL. Format: binding, human. As to the method:
For N-terminally truncated Aβ peptides, untagged peptides were used. For ELISA, 96-well microplates were coated with 5 μg/mL peptide in Coating Buffer (15 mM Na2CO3, 35 mM NaHCO3, pH 9.6) overnight at 4 °C. Plates were washed and non-specific binding sites were blocked with 2% BSA in PBS for 1 h at 25 °C. Serially diluted antibody starting from 100 nM in Assay Buffer (2% BSA in PBS) was added, and the plates were incubated for 2 h at room temperature. Binding was determined by incubation with an HRP-conjugated goat anti-human polyclonal antibody (Jackson ImmunoResearch) followed by measurement of HRP activity using Ultra TMB ELISA Colorimetric Substrate Solution (Thermo Fisher Scientific). For C-terminally truncated Aβ peptides, biotin-conjugated peptides were used. The biotin was attached synthetically to the C terminus of the protein by incorporation of a non-native lysine residue. For ELISA, biotin-conjugated peptides were incubated for 1 h at room temperature, at a concentration of 5 μg/mL in Assay Buffer, using plates that were pre-coated with neutravidin (Thermo Fisher Scientific, Reacti-Bind plates). Plates were washed, antibodies diluted serially in Assay Buffer were added, and binding was measured as described above.

In another test the test system is Aβ1-42 oligomer. Description: ELISA, effect of coating concentration, oligomers. Format: binding. The source says:
(§1) Aβ1-42 concentration Aβ1-42 oligomer Aβ1-42 monomer
(§2) (µg/mL) (EC50, nM) (EC50, nM)

The test system of the next test is Aβ1-42 monomer. Description: ELISA, effect of coating concentration, monomer. Format: binding.
Excerpt: as §1, §2
In general terms: In an ELISA, binding on a coated surface is turned into a signal by an enzyme label.

Where [1] appears, read: Aβ1-42 coating concentration 0.1 μg/mL.
[2] abbreviates: Aβ1-42 coating concentration 1 μg/mL.
Setting [3] is: Aβ1-42 coating concentration 10 μg/mL.

Take “1–12: C-terminally biotinylated truncated Aβ peptide, residues 1–12 (DAEFRHDSGYEV; Amyloid-beta protein 42 C-terminal biotin; UniProt P05067 672-683, looked up, fragment)”: the concentration for a half-maximal effect (EC50) (in general, the concentration giving half of the maximal effect) in the test on aducanumab is 0.55 nM.
With “1–16: C-terminally biotinylated truncated Aβ peptide, residues 1–16 (DAEFRHDSGYEVHHQK; Amyloid-beta protein 42 C-terminal biotin; UniProt P05067 672-687, looked up, fragment)”, in the test with aducanumab, the concentration giving a half-maximal response (EC50) was determined as 0.5 nM and the “Fold reduction (relative to Aβ1-42)” value was 1.3 fold.
Consider “2–42: untagged N-terminally truncated Aβ peptide”, for which, in the test with aducanumab, the concentration giving a half-maximal response (EC50) worked out at 0.36 nM and the “Fold reduction (relative to Aβ1-42)” value worked out at 1.0 fold. Moreover, in the test on aducanumab (listed as Aβ2-42), the “Fold reduction (relative to Aβ1-42)” value is listed as “little impact”.
In the case of “4–42: untagged N-terminally truncated Aβ peptide”, in the test on aducanumab, the half-maximal effective concentration (EC50) was 15 nM and the “Fold reduction (relative to Aβ1-42)” value is 41 fold. Moreover, in the test with aducanumab (listed as Aβ4-42), the “Fold reduction (relative to Aβ1-42)” value is recorded as greater than 40 fold.
Take “aducanumab: recombinant human antibody targeting amyloid-β, derived from a blood lymphocyte library of healthy elderly donors”: the EC50 in the test with Aβ1-42 oligomer (setting [1]) was 0.09 nM; with Aβ1-42 oligomer (setting [2]), 0.06 nM; with Aβ1-42 oligomer (setting [3]), 0.09 nM; with Aβ1-42 monomer (setting [1]), 20 nM; with Aβ1-42 monomer (setting [2]), 0.16 nM; with Aβ1-42 monomer (setting [3]) it was 0.09 nM.

For the origin of these results see publication PMC5913127 (Scientific Reports, 2018).
